Source: US11850306B2, “Method for drying hydrogel comprising nanofibrillar cellulose and a dried hydrogel comprising nanofibrillar cellulose” (UPM-KYMMENE CORPORATION, priority 2016, dated 2023)

Experiments:
[1] = cited from earlier work
[2] = In vitro release studies: diffusion coefficients of model compounds from NFC hydrogels; type: physicochemical; settings: for Diffusion coefficients for model compounds in different NFC hydrogels: no excipients; for Diffusion coefficient in NFC-hydrogels: pH 7.4, 37° C.

## FITC-dextran
[1]; pH 7.0
  Charge at pH 7.0: ø
[1]; pH 7.4
  Charge of compounds at pH 7.4: dextran (ø)
[2]; 3% NFC
  Diffusion coefficients for model compounds in different NFC hydrogels: 59.44 10^−8 cm^2/s
[2]; 3% vs 6.5% NFC hydrogel
  Diffusion rate through 3% NFC hydrogel relative to 6.5% NFC hydrogel (times faster): 1.5 times
[2]; 6.5% NFC
  Diffusion coefficients for model compounds in different NFC hydrogels: 40.01 10^−8 cm^2/s
[2]; NFC hydrogel 11804-3 (3.2%)
  Diffusion coefficient in NFC-hydrogels: 59.44 10^−8 cm^2/s
[2]; NFC hydrogel 11814-1 (5.7%)
  Diffusion coefficient in NFC-hydrogels: 40.03 10^−8 cm^2/s
[2]; NFC hydrogel 11814-3 (5.7%)
  Diffusion coefficient in NFC-hydrogels: 47.52 10^−8 cm^2/s
[2]; NFC hydrogel 11815-3 (6.8%)
  Diffusion coefficient in NFC-hydrogels: 40.01 10^−8 cm^2/s
